The list shows a part of the results, in another mix than the full data. Some tests of the compounds listed are not included; inactive here does not mean inactive elsewhere. Activity calls are given as the source filed them.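 How the source made its calls: active means inhibition of disassembly above about 33% (limit read from the data); inconclusive means likely self-fluorescent, control bead median signal at least 40; inactive means the rest.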
tested on: 26S proteasome (yeast, GFP-tagged, ATP-dependent disassembly); assay: inhibitors of ATP-driven 26S proteasome dissociation, primary screen, biochemical, bead-based flow cytometry, GFP-tagged proteasome (AID 751); settings: anti-FLAG beads, hits give high values, concentration not given here;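 further: plate controls were ATP control with full disassembly for no effect and ATP-gamma-S intact proteasomes for full effect; higher percent means more bead fluorescence retained so stronger block of disassembly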

Structure (SMILES)	inhibition of disassembly
O=C(OC1CN2CCC1CC2)C(CO)(c1ccccc1)c1ccccc1 (stereo unspecified)	inactive: -1.53%

From PubChem BioAssay AID751 (NMMLSC, 2007)
